# Literature values in patent US12268726B2, “Treatment of rhinosinusitis with P-glycoprotein inhibitors” (Massachusetts Eye and Ear Infirmary, priority 2012, dated 2025).
# The chains behind the UniProt entries cited, without tags or fusion partners.
# UniProt P08183, whole entry: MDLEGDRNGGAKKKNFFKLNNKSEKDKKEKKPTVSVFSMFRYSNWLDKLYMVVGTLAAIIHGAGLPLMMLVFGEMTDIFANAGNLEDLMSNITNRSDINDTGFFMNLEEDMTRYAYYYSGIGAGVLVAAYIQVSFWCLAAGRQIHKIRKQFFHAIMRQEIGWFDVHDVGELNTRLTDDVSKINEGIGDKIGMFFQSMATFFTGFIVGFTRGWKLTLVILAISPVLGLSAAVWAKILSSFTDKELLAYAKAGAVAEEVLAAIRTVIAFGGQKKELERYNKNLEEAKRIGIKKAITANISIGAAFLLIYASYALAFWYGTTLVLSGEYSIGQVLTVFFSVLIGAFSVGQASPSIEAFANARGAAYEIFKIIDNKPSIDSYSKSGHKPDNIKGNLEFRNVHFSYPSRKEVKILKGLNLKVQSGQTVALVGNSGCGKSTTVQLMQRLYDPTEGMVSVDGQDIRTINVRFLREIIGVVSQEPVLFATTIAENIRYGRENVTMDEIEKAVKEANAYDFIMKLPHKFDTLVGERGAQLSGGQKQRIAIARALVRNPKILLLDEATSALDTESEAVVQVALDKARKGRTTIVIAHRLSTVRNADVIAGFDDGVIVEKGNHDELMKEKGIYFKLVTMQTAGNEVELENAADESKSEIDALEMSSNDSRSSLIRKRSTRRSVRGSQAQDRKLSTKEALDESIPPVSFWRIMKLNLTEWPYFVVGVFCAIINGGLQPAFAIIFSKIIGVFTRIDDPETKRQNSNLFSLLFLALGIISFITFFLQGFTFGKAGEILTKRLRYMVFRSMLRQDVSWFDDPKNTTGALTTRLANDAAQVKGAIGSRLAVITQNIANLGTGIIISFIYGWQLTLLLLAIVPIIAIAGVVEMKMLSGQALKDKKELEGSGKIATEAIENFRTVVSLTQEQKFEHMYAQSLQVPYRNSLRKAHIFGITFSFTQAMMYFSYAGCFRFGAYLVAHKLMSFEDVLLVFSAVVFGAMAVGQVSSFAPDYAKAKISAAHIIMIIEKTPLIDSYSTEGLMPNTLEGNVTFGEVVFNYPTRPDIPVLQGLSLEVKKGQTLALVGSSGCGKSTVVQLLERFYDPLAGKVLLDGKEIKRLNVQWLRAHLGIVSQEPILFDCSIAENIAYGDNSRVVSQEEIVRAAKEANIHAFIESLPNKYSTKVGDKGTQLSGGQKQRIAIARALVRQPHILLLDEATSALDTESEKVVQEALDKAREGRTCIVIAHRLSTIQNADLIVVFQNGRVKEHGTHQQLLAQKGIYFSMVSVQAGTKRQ
# Molecular target: P-gp (Homo sapiens, UniProt P08183)
# Conditions: Varma et al., 2003; cited from earlier work
smiles,measurement,value
"Cl.Cl.Cl.O[C@@H](COc1cccc2ncccc12)CN1CCN([C@@H]2c3ccccc3[C@@H]3[C@H](c4ccccc42)C3(F)F)CC1 [Zosuquidar, (2R)-1-{4-[(1aR,6r,10bS)-1,1-Difluoro-1,1a,6,10b-tetrahydrodibenzo[a,e]cyclopropa[c]cyclohepten-6-yl]piperazin-1-yl}-3-(quinolin-5-yloxy)propan-2-ol,trihydrochloride]",potency relative to the first and second-generation P-gp inhibitors,about 10 fold
